Source: paper PMC6602958, “Pharmacokinetics of anti-infectious reagents in silkworms” (Scientific Reports, 2019)

Tested on: cytochrome P450
Experiment: Decay of cytochrome P450 substrates in in vitro culture of the silkworm midgut (HPLC)
Procedure: Silkworm midgut was incubated in medium with cytochrome P450 substrates at 30 °C. The samples were collected, extracted by acetone, and evaporated. The amounts of substrates were determined by HPLC analysis.
Silkworms (5th instar, 5 days) were dissected in a buffer (10 mM HEPES/NaOH, 0.9% NaCl, pH 7.9), and isolated organs were incubated with 3 mL TC-100 medium containing 10% fetal bovine serum, 50 µg/ml gentamicin, and substrates for the metabolic reaction. Whole samples (medium and organ) were homogenized and extracted by equal volumes of acetone followed by evaporation. Extracted samples were dissolved in 50 mM NaOAc buffer and treated with beta-glucosidase to measure the fluorescence of metabolized 7-ethoxycoumarin[6]. […] Samples for HPLC were dissolved in 50% methanol. HPLC analysis was performed using a PEGASIL ODS SP column (φ4.5 mm × 250 mm) with isocratic elution at a flow rate of 1 ml/min.

[1] = midgut culture, 1 h, raw data of Fig. 3
[2] = midgut culture, 4 h, raw data of Fig. 3

Metabolism in the silkworm midgut (in words) (in vitro organ culture, up to 20 h incubation): metabolized in the silkworm midgut
HPLC peak area of substrate, Sample 2 (midgut culture, 0 h, raw data of Fig. 3): 304932
HPLC peak area of substrate, Sample 1 [1]: 270164
HPLC peak area of substrate, Sample 2 [1]: 279934
HPLC peak area of substrate, Sample 1 [2]: 239359
HPLC peak area of substrate, Sample 2 [2]: 211730
HPLC peak area of substrate, Sample 1 (midgut culture, 20 h, raw data of Fig. 3): 86676
HPLC peak area of substrate, Sample 1 (silkworm (Bombyx mori)): 317015
HPLC peak area of substrate, Sample 2 (silkworm (Bombyx mori)): 64653
Compound: CO[C@H]1/C=C/O[C@@]2(C)Oc3c(C)c(O)c4c(O)c(c(/C=N/N5CCN(C)CC5)c(O)c4c3C2=O)NC(=O)/C(C)=C\C=C\[C@H](C)[C@H](O)[C@@H](C)[C@@H](O)[C@@H](C)[C@H](OC(C)=O)[C@@H]1C [Rifampicin]
